Compound activity: PubChem, Broad Institute
esBAF inh = inhibitors of esBAF chromatin remodeling in mouse ES cells; Bmi1-luciferase knock-in reporter, 24 h; 100% = twice the neutral-well signal; reporter increase, % at 12.5 µM; hit rate 2% among 350,000; AID 602393; in the data active = activation above about 40%;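 note: 0% = median of the plate's neutral control wells and 100% = double that signal; a rise in the Bmi1 reporter signal indicates esBAF inhibition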
Wnt bcat act = activators of Wnt/beta-catenin signaling. AID 743398. Wnt/beta-catenin reporter cell assay, activator, plate reader. activation, % at 9.35 µM. hit rate 1.2% among 300,000; in the data active = activation above about 30%, passing the limit was not always enough;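 note: 0% = neutral control wells and 100% = positive control wells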
Yeast UUG start-1 = modulators of start codon recognition fidelity in yeast; AID 602363; hit rate 0.13% among 350,000; activity score, % at 18.7 µM; S. cerevisiae UUG-firefly luciferase reporter, luminescence/redox ratio;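 active = replicate mean at a twofold rise or more, about +100% in these data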;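 note: firefly luciferase made from a UUG start codon reports start codon fidelity; reporter light over untreated wells divided by growth signal over untreated wells; some hits fall short of that in this replicate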
PglD DTNB = blocks C. jejuni PglD acetyltransferase activity; purified PglD enzyme, DTNB colorimetric CoA detection; inhibition, % at 12.5 µM; hit rate 0.098% among 360,000; AID 602405; in the data active = inhibition above about 16%, passing the limit was not always enough
MITF act = increases MITF-driven TRPM1 promoter luciferase signal. AID 588334. SK-MEL-5 TRPM1-promoter luciferase, 24 h; % of positive control, neutral wells = 0. activation, % at 12.5 µM. hit rate 0.75% among 300,000;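 active = mean activation of at least 80% with every replicate also reaching 80%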;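 note: 0% = neutral control wells and 100% = parthenolide positive control wells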
miR122 inh = inhibitors of miR-122 in Huh7 cells. hit rate 0.3% among 340,000. activation (reporter increase), % at 12.5 µM. Huh7 miR-122 Renilla luciferase sensor, 48 h; neutral wells = 0, positive control = 100;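 active = mean replicate activation score at least 90 and every replicate individually at or above 90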;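 note: higher luciferase means less miR-122 activity so hits act as miR-122 inhibitors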
Yeast UUG start-2 = modulators of start codon recognition fidelity in yeast | shares compounds with Yeast UUG start-1 | S. cerevisiae UUG-start firefly luciferase, luminescence, 4 h; 100% means double the DMSO signal | activation, % at 38 µM | 540 tested, under 10 active;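 active = signal increase whose fitted curve reaches an absolute level of 40 at a concentration under 10 µM; inactive = activity opposite to the expected increase, or the rest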
An asterisk follows results filed as active; i = inactive; . = no result given; [ ] = another dose, or the depositor's remark. In the library only some 2.8% were active in any assay of this set; here they are far more common.

esBAF inh | Wnt bcat act | Yeast UUG start-1 | PglD DTNB | MITF act | miR122 inh | Yeast UUG start-2 | Structure
-8 | . | 145* | 3 | . | . | i | O=C(C[C@@H]1CC[C@H](NC(=O)c2cccc(F)c2)[C@@H](CO)O1)NCc1ccc(Oc2ccccc2)cc1
-5 | . | . | 2 | . | . | . | CCCN1C[C@H](C)[C@H](OC)CN(C)C(=O)c2cc(NS(=O)(=O)c3ccccc3)ccc2OC[C@H]1C
0 | 4 | 174* | -2 | -2 | -3 | -4 | CC(=O)NCCCc1nc2ccccc2n1Cc1ccccc1F
-1 | . | 0 | -2 | . | -24[16.7 µM] | . | COc1ccc(S(=O)(=O)N[C@@H]2C=C[C@H](CC(=O)N3CCc4ccccc4C3)O[C@H]2CO)cc1
-7 | -7 | 460* | -3 | -8 | 5 | -5 | O=C(COC(=O)Cc1ccc(Cl)cc1)Nc1c(F)cccc1F
. | -2 | . | . | -5 | . | . | O=C(COC(=O)Cc1ccc(Cl)cc1)Nc1ccccc1F
-7 | . | -20 | 3 | . | -5[16.7 µM] | . | C[C@H]1CN([C@@H](C)CO)C(=O)Cc2cc(NC(=O)Nc3cccc4ccccc34)ccc2O[C@@H]1CN(C)S(=O)(=O)c1ccccc1
. | . | 151* | -2 | . | . | i | COc1ccc([C@@H](OC(=O)Nc2ccc(SC)cc2)[C@@H](CCO)OC)cc1O
-8 | -1 | 486* | -8 | 5 | -1 | 5 | O=C(NCCCN1CCCC1)c1cc2c(Cl)nc3ccccc3c2s1
0 | -6 | 8 | -10 | -34 | 1 | . | CC1CCN(CCCNC(=O)c2cc3c(Cl)nc4ccccc4c3s2)CC1
-1 | . | 5 | 6 | 0 | -6 | -5 | CC(O)(C#CCN1CCCC1)c1ccccc1 (centres undefined)
-3 | . | -22 | -8 | -5 | -6 | . | CC(O)(C#CCN1CCCCC1)c1ccccc1 (centres undefined)
. | . | . | . | 3 | . | 12 | OC(C#CCN1CCCC1)(c1ccccc1)c1cccc(F)c1 (centres undefined)
4 | . | -26 | -6 | . | 1[16.7 µM] | . | COc1ccc(NC(=O)N(C)C[C@@H]2Oc3ccc(NS(C)(=O)=O)cc3CC(=O)N([C@@H](C)CO)C[C@@H]2C)cc1
2 | . | -7 | 2 | . | 0[16.7 µM] | . | CO[C@H]1CN(C)C(=O)c2cc(NC(=O)C3CC3)ccc2OC[C@H](C)N(Cc2cccnc2)C[C@H]1C

Given as tab-separated lines: entries from further up
SMILES	esBAF inh	Wnt bcat act	Yeast UUG start-1	PglD DTNB	MITF act	miR122 inh	Yeast UUG start-2
C[C@H]1CN([C@@H](C)CO)C(=O)Cc2cc(NC(=O)Nc3cccc4ccccc34)ccc2O[C@@H]1CN(C)S(=O)(=O)c1ccccc1	-7	.	-20	3	.	-5[16.7 µM]	.
COc1ccc([C@@H](OC(=O)Nc2ccc(SC)cc2)[C@@H](CCO)OC)cc1O	.	.	151*	-2	.	.	i

(cont.)
esBAF inh | Wnt bcat act | Yeast UUG start-1 | PglD DTNB | MITF act | miR122 inh | Yeast UUG start-2 | Structure
-2 | . | 1 | -1 | . | 0[16.7 µM] | . | O=C(Nc1ccc2c(c1)[C@H]1C[C@H](CC(=O)N3CCCCC3)O[C@@H](CO)[C@H]1O2)c1ccc2c(c1)OCO2
9 | -4 | 249* | -2 | -11 | 17 | -3 | CC(C)CNC(=O)c1cccc(NC(=O)Cc2ccc(Cl)cc2)c1
-5 | -6 | 229* | 1 | 4 | -4 | 8 | Cc1cc(OCCCCNC(C)C)cc(C(C)C)c1
-8 | . | -16 | 4 | 8 | 10 | . | Cc1cc(OCCOCCNC(C)C)cc(C)c1Cl
3 | . | . | 12 | . | 3[16.7 µM] | . | C[C@H](CO)N1C[C@H](C)[C@@H](CN(C)Cc2ccncc2)Oc2ccc(NC(=O)CCN3CCOCC3)cc2CC1=O
-65 | -16 | 127* | -2 | -87 | -49 | 11 | CN(C)c1ccc(/C=C/c2ccc3ccccc3[n+]2C)cc1
-89 | -3 | 171* | 7 | -101 | -1 | -56 | O=C(Nc1ccc([N+](=O)[O-])cc1)C(=O)Nc1cccc(C(=O)O)c1
0 | 15 | 303* | -9 | -11 | -5 | 7 | COc1ccc(S(=O)(=O)N2CCN(CCCOc3ccc(F)cc3)CC2)cc1OC
-5 | -2 | 4 | 1 | . | . | . | COc1ccc(S(=O)(=O)N2CCN(c3ccc(F)cc3)CC2)cc1OC
-3 | -4 | 155* | -8 | . | 0 | -3 | OCCNc1nc(NCc2ccccc2)c2ccccc2n1
-32 | 28 | 321* | 3 | . | -12 | -32 | Cc1ccc(C(=O)NCCSC(C)(C)C)cc1
14 | -4 | 126* | 1 | . | -4 | -7 | O=C(NCc1cccc(Cl)c1)c1ccc(-n2ccnc2)c2ccoc12
5 | -1 | 177* | -6 | . | 3 | -3 | COc1ccc(CNC(=O)c2ccc(-n3ccnc3)c3ccoc23)cc1OC
0 | 2 | -7 | 1 | . | -1 | . | Cc1noc(C)c1-c1ccc(C(=O)NCc2cccc(Cl)c2)c2occc12
4 | -4 | -5 | -6 | . | 12 | . | COc1ccc(CNC(=O)c2ccc(-n3cncn3)c3ccoc23)cc1OC

Full records from above. Order of values: esBAF inh, Wnt bcat act, Yeast UUG start-1, PglD DTNB, MITF act, miR122 inh, Yeast UUG start-2
CN(C)c1ccc(/C=C/c2ccc3ccccc3[n+]2C)cc1 is entered as -65, -16, 127*, -2, -87, -49, 11
Cc1noc(C)c1-c1ccc(C(=O)NCc2cccc(Cl)c2)c2occc12 is entered as 0, 2, -7, 1, ., -1, .
C[C@H](CO)N1C[C@H](C)[C@@H](CN(C)Cc2ccncc2)Oc2ccc(NC(=O)CCN3CCOCC3)cc2CC1=O is entered as 3, ., ., 12, ., 3[16.7 µM], .

Carrying on.
esBAF inh | Wnt bcat act | Yeast UUG start-1 | PglD DTNB | MITF act | miR122 inh | Yeast UUG start-2 | Structure
4 | . | 173* | 2 | . | . | i | CO[C@H]1CN(C)C(=O)c2ccc(NC(=O)c3nc4ccccc4s3)cc2OC[C@H](C)N(Cc2ccncc2)C[C@H]1C
-2 | . | -12 | 3 | . | 1[16.7 µM] | . | CO[C@@H]1CN(C)C(=O)c2ccc(NC(=O)Nc3c(C)noc3C)cc2OC[C@H](C)N(C)C[C@H]1C
2 | . | 69* | 3 | . | 4[16.7 µM] | i | CO[C@@H]1CN(C)C(=O)c2ccc(NC(=O)Nc3c(C)noc3C)cc2OC[C@H](C)N(C)C[C@@H]1C
1 | . | -1 | 4 | . | . | . | CO[C@@H]1CN(C)C(=O)c2ccc(NC(=O)c3nc4ccccc4s3)cc2OC[C@@H](C)N(Cc2ccncc2)C[C@@H]1C
2 | . | 147* | 4 | . | . | i | CO[C@@H]1CN(C)C(=O)c2ccc(NC(=O)C3CCOCC3)cc2OC[C@@H](C)N(C(C)=O)C[C@H]1C
1 | . | 134* | 4 | . | . | i | CCCC(=O)Nc1ccc2c(c1)C(=O)N(C)C[C@@H](OC)[C@H](C)CN(S(=O)(=O)c1cn(C)cn1)[C@@H](C)CO2
4 | . | -2 | 2 | . | . | . | Cc1ccc(S(=O)(=O)NCC[C@H]2CC[C@H](NC(=O)Nc3cccc(F)c3)[C@H](CO)O2)cc1
0 | . | 2 | -2 | . | 22[16.7 µM] | . | C[C@H](CO)N1C[C@H](C)[C@H](CN(C)S(C)(=O)=O)Oc2cc(C#CC3CC3)ccc2S1(=O)=O
-2 | . | -5 | -3 | . | 5[16.7 µM] | . | CC(C)NC(=O)N(C)C[C@@H]1Oc2c(NC(=O)C3CC3)cccc2C(=O)N([C@H](C)CO)C[C@H]1C
0 | . | -5 | -1 | . | 3[16.7 µM] | . | CCCNC(=O)C[C@H]1CC[C@@H]2[C@@H](COc3ccc(NC(=O)NCC)cc3C(=O)N2C)O1
3 | . | -18 | -3 | . | -5[16.7 µM] | . | C[C@H]1CN([C@@H](C)CO)C(=O)Cc2cc(NC(=O)Cn3cnnn3)ccc2O[C@@H]1CN(C)Cc1ccncc1
. | 1 | . | . | 1 | . | 8 | O=C1Nc2ccc([N+](=O)[O-])cc2OC1CCN1CCN(Cc2ccccc2)CC1 (centres undefined)
-2 | 3 | -21 | -8 | 8 | 0 | 5 | CCN1CCN(CCC2Oc3cc([N+](=O)[O-])ccc3NC2=O)CC1 (centres undefined)
-1 | 0 | -19 | -4 | 3 | 4 | . | COc1ccc(N2CCN(CCC3Oc4cc([N+](=O)[O-])ccc4NC3=O)CC2)cc1 (centres undefined)
